Measured values reported in IntAct's records for PubMed 35512704.

B1: RAC-alpha serine/threonine-protein kinase (Homo sapiens), P31749 (parent)
chain: MSDVAIVKEGWLHKRGEYIKTWRPRYFLLKNDGTFIGYKERPQDVDQREAPLNNFSVAQCQLMKTERPRPNTFIIRCLQWTTVIERTFHVETPEEREEWTTAIQTVADGLKKQEEEEMDFRSGSPSDNSGAEEMEVSLAKPKHRVTMNEFEYLKLLGKGTFGKVILVKEKATGRYYAMKILKKEVIVAKDEVAHTLTENRVLQNSRHPFLTALKYSFQTHDRLCFVMEYANGGELFFHLSRERVFSEDRARFYGAEIVSALDYLHSEKNVVYRDLKLENLMLDKDGHIKITDFGLCKEGIKDGATMKTFCGTPEYLAPEVLEDNDYGRAVDWWGLGVVMYEMMCGRLPFYNQDHEKLFELILMEEIRFPRTLGPEAKSLLSGLLKKDPKQRLGGGSEDAKEIMQHRFFAGIVWQHVYEKKLSPPFKPQVTSETDTRYFDEEFTAQMITITPPDQDDSMECVDSERRPHFPQFSYSASGTA
partner: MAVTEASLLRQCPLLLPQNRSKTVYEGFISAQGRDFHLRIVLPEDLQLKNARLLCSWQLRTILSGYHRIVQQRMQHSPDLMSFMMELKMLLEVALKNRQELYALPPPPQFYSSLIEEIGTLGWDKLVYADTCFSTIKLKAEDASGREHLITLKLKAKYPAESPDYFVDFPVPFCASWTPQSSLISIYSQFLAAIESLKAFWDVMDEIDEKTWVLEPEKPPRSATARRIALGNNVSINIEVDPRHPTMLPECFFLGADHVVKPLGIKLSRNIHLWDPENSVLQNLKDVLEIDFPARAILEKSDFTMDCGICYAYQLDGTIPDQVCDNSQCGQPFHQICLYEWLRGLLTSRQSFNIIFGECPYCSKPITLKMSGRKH
B2: RAC-alpha serine/threonine-protein kinase (Homo sapiens), P31749 (parent)
chain: B1 chain
partner: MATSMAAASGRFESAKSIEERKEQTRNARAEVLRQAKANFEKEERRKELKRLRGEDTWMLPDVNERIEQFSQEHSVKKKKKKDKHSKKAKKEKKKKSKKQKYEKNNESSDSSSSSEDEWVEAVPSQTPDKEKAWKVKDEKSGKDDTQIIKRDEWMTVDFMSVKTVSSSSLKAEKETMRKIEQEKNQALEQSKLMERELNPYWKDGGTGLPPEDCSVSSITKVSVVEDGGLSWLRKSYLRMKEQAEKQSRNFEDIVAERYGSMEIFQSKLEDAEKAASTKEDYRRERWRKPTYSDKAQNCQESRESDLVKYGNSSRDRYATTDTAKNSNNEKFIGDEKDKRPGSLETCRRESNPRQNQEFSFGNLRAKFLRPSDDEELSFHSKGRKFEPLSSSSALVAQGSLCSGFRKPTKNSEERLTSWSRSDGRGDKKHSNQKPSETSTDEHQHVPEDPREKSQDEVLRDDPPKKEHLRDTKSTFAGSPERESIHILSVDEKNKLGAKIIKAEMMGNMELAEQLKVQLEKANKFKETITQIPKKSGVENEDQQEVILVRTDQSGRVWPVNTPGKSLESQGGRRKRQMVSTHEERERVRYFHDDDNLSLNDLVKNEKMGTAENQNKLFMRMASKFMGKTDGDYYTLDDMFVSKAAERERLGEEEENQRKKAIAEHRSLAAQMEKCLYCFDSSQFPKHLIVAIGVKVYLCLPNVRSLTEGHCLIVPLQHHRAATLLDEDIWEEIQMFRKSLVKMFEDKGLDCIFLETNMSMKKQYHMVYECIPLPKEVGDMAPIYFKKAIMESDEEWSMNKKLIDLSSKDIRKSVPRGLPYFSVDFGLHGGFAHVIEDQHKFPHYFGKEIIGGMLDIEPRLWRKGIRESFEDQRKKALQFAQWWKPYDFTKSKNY
B3: RAC-alpha serine/threonine-protein kinase (Homo sapiens), P31749 (parent)
chain: B1 chain
partner: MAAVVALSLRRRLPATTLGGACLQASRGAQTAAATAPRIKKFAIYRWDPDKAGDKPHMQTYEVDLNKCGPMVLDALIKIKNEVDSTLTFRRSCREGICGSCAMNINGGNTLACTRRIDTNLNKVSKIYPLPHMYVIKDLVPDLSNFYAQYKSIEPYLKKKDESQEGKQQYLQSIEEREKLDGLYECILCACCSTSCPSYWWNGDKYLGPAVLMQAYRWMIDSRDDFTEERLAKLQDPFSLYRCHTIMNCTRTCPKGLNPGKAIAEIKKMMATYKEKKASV
B4: RAC-alpha serine/threonine-protein kinase (Homo sapiens), P31749 (parent)
chain: B1 chain
partner: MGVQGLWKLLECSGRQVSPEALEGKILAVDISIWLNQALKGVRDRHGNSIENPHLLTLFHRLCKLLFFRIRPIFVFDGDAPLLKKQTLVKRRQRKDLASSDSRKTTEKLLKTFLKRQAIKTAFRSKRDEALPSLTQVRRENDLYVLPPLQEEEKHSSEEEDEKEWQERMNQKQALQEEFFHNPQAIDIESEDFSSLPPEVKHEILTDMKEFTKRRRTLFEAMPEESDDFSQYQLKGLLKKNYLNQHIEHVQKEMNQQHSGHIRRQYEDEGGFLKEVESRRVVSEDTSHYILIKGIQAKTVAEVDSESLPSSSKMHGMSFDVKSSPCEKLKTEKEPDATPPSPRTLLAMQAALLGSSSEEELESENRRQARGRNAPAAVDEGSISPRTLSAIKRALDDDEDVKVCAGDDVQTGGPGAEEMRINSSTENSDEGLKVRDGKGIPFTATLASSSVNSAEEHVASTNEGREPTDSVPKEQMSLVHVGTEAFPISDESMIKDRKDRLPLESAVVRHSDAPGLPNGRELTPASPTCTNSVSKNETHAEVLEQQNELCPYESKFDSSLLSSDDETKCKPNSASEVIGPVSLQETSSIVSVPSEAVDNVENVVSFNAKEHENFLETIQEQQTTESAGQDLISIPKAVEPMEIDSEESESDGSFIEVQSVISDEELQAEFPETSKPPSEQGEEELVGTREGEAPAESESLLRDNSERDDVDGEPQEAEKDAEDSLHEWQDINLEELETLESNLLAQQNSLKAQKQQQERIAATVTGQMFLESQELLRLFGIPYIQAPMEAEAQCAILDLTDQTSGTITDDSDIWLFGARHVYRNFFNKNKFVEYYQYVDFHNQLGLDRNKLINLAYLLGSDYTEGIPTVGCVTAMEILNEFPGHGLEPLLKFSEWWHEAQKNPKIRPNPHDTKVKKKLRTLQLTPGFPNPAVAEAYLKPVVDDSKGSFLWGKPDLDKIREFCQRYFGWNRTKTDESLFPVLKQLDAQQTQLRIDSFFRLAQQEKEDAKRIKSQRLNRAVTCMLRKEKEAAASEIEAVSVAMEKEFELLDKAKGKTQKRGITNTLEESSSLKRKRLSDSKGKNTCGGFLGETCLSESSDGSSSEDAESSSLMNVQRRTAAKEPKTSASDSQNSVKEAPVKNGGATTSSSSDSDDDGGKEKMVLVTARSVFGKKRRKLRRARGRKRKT
B5: RAC-alpha serine/threonine-protein kinase (Homo sapiens), P31749 (parent)
chain: B1 chain
partner: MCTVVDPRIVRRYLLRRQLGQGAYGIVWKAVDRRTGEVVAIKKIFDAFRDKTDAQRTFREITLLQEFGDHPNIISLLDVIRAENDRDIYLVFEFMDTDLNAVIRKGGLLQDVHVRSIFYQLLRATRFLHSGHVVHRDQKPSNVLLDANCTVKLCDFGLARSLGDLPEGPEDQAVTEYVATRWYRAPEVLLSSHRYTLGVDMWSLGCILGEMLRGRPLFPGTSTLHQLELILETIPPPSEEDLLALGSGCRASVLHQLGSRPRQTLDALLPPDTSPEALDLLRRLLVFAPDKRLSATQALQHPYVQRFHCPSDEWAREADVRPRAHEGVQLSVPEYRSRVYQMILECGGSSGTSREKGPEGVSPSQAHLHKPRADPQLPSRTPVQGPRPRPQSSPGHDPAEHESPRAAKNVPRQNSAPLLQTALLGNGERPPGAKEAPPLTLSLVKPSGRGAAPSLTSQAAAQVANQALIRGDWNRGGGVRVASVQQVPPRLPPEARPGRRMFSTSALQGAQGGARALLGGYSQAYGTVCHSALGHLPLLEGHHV
B6: RAC-alpha serine/threonine-protein kinase (Homo sapiens), P31749 (parent)
chain: B1 chain
partner: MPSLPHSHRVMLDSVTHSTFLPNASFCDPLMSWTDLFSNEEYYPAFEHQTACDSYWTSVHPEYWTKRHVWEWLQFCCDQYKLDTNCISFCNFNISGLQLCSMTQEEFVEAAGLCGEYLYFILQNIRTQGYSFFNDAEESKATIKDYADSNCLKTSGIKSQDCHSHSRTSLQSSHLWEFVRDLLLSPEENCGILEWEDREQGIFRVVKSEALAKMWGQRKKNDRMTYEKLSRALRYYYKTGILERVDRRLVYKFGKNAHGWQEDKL

Variants of: B1
Details: with fancl_human FANCL

Row | effect of a mutation on the interaction | Variant
1 | causing an interaction | E17K

Variants of: B2
Details: with CWF19L2, Q2TBE0

Row | effect of a mutation on the interaction | Variant
2 | causing an interaction | E17K

Variants of: B3
Details: with sdhb_human SDHB

Row | effect of a mutation on the interaction | Variant
3 | causing an interaction | E17K

Variants of: B4
Details: with ercc5_human ERCC5, P28715

Row | effect of a mutation on the interaction | Variant
4 | causing an interaction | E17K

Variants of: B5
Details: with mk15_human MAPK15, Q8TD08

Row | Variant | effect of a mutation on the interaction
5 | E17K | causing an interaction

Variants of: B5
Details: with mk15_human MAPK15, Q8TD08
Remark: another data set of the same source

Row | Variant | effect of a mutation on the interaction
6 | E17K | increasing interaction strength

Variants of: B6
Details: with elf5_human ELF5, Q9UKW6

Row | effect of a mutation on the interaction | Variant
7 | causing an interaction | E17K

Variants of: B6
Details: with elf5_human ELF5, Q9UKW6
Remark: another data set of the same source

Row | effect of a mutation on the interaction | Variant
8 | increasing interaction strength | E17K
